Laboratory results reported in ChEMBL document CHEMBL3797098, “An in Vitro and in Vivo Investigation of Bivalent Ligands That Display Preferential Binding and Functional Activity for Different Melanocortin Receptor Homodimers” (J Med Chem, 2016).

Sequences of proteins named here, by UniProt entry; tags and fusion partners are left off. A change or cut given only in a name is not applied to a line headed by its entry.
UniProt P33033: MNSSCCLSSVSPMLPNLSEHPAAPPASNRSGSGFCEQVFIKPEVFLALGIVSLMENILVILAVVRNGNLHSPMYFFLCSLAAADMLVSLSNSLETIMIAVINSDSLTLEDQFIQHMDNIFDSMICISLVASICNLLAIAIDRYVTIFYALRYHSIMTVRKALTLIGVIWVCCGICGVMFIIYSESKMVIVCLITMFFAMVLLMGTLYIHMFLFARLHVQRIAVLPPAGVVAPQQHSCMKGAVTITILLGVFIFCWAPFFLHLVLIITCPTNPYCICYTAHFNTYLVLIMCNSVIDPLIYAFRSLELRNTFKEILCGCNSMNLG
UniProt P41149: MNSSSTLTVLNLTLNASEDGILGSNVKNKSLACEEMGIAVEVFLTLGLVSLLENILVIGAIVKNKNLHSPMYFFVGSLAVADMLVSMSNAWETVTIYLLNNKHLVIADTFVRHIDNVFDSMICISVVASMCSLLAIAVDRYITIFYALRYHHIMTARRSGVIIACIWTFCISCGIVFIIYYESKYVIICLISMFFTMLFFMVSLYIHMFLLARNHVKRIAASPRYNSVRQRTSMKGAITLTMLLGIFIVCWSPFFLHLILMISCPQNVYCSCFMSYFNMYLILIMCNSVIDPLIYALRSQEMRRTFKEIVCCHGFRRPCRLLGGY
UniProt P56450, whole entry: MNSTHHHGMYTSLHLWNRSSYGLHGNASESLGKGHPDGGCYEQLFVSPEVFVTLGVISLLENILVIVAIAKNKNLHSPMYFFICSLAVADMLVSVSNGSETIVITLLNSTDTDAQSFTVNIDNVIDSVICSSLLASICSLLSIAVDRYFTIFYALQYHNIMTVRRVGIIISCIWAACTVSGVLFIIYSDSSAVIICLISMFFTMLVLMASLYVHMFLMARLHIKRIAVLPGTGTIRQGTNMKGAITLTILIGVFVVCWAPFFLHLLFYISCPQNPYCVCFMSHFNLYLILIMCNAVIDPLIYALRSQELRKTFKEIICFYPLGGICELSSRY

Experiments:
Assay type in all cases: functional, cell-based
[1] = molecular target: Melanocortin receptor 3 (Mus musculus) (UniProt P33033); assay: Agonist activity at mouse MC3R expressed in HEK293 cells assessed as cAMP accumulation incubated for 2 hrs by alphascreen assay relative to Ac-His-DPhe-Arg-Trp-NH2
[2] = molecular target: Melanocortin receptor 5 (Mus musculus) (UniProt P41149); assay: Agonist activity at mouse MC5R expressed in HEK293 cells assessed as cAMP accumulation incubated for 2 hrs by alphascreen assay relative to Ac-His-DPhe-Arg-Trp-NH2
[3] = molecular target: Melanocortin receptor 4 (Mus musculus) (UniProt P56450); assay: Agonist activity at mouse MC4R expressed in HEK293 cells assessed as cAMP accumulation at 100 uM incubated for 2 hrs by alphascreen assay

| Ratio EC50 [1] | Ratio EC50 [2] | Activity [3] [%] | Structure (SMILES) |
| --- | --- | --- | --- |
| 2 | 2 |  | CC(=O)N[C@@H](Cc1cnc[nH]1)C(=O)N[C@H](Cc1ccccc1)C(=O)N[C@@H](CCCNC(=N)N)C(=O)N[C@@H](Cc1c[nH]c2ccccc12)C(=O)NCCCOCCOCCOCCCNC(=O)COCC(=O)NCCCOCCOCCOCCCNC(=O)COCC(=O)N[C@@H](Cc1cnc[nH]1)C(=O)N[C@H](Cc1ccccc1)C(=O)N[C@@H](CCCNC(=N)N)C(=O)N[C@@H](Cc1c[nH]c2ccccc12)C(N)=O |
|  |  | 40 | CC(=O)N[C@@H](Cc1c[nH]cn1)C(=O)N[C@H](Cc1ccc2ccccc2c1)C(=O)N[C@@H](CCCN=C(N)N)C(=O)N[C@@H](Cc1c[nH]c2ccccc12)C(N)=O |
